Sequences of proteins named here, by UniProt entry; tags and fusion partners are left off.
Guanine nucleotide-binding protein G(i) subunit alpha-3 (Rattus norvegicus), P08753, UniProt P08753, whole entry, looked up: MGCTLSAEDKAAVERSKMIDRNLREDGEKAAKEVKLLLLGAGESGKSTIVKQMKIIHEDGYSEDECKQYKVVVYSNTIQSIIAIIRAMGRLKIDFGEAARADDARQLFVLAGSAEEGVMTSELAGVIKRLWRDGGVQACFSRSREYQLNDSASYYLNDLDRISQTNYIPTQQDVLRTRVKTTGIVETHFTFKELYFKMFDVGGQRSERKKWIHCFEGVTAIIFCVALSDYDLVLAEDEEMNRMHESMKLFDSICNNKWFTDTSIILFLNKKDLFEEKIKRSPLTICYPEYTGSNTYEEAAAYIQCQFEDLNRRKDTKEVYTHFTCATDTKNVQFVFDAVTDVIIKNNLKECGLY

# Screening data (PubChem)
# HCMV UL50-53 inh: inhibitors of HCMV UL50-UL53 interaction, biochemical, HTRF | HCMV UL50-UL53 nuclear egress complex (human cytomegalovirus) | normalized percent inhibition | inhibition, % (concentration not given with the values) | 0.15% of 190,000 active; in the data active = inhibition above about 27%, passing the limit was not always enough
# GIV Gai3 FP: inhibitors of GIV peptide binding to Galpha-i3, primary screen, biochemical, fluorescence polarization, FITC-GIV GBA peptide, rat Galphai3; hit rate 0.42% among 210,000; percent of control (FP), % (concentration not given with the values); 90 min; stronger effect = lower value; scaled: aluminum fluoride 0%, vehicle 100%; Guanine nucleotide-binding protein G(i) subunit alpha-3 (Rattus norvegicus), P08753;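 active = replicate mean at 85% of control or lower, very high polarization wells dropped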;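 note: wells of about 15 µL received 100 nL stock; the first replicate is given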
# An asterisk follows results filed as active; x = not tested or not shown; ! = not confirmed by another sample. In the library only some 0.43% were active in any assay of this set; here they are far more common.
item | mol | HCMV UL50-53 inh | GIV Gai3 FP
1 | OCC(O)C(O)C(O)C(O)c1nc2ccccc2[nH]1 (stereo not drawn) | 37* | x
2 | OC(c1ccc(Cl)cc1)C(O)c1nc2ccccc2[nH]1 (stereo not drawn) | -20 | x
3 | COC(=O)COc1ccc(C)cc1C(C)(C)C | -3 | 101
4 | N#Cc1c(N)nc(SCC(=O)Nc2ccc([N+](=O)[O-])cc2)c(C#N)c1-c1ccco1 | -27 | 97
5 | N#Cc1c(N)nc(SCC(=O)c2ccc(Br)cc2)c(C#N)c1-c1cccs1 | 40* | 100
6 | CCOc1ccc(-c2c(C#N)c(N)nc(SCC(=O)OC)c2C#N)cc1 | 73* | 105
7 | N#Cc1c(N)nc(SCC(=O)c2ccc(Br)cc2)c(C#N)c1-c1ccccc1 | 7 | 101
8 | N#Cc1c(N)nc(SCC(=O)Nc2ccccc2)c(C#N)c1-c1ccccc1 | 24* | 98
9 | COc1ccc(-c2c(C#N)c(N)nc(SCC(=O)OCc3ccccc3)c2C#N)cc1 | 4 | 104
10 | CCN(CC)CCNC(=O)CCCN1C(=O)COc2ccc(C)cc21 | -19 | 103
11 | Cc1c(-c2nn3c(Cc4ccccc4)nnc3s2)nnn1-c1ccc(Cl)cc1 | 0 | 99
12 | CCn1nc(C)c(CCNC(=O)Cn2c(=O)c(=O)n(C)c3ncccc32)c1C | x | 108
13 | COc1ccc(C2/C(=C(\O)c3ccc(Cl)cc3)C(=O)C(=O)N2CCO)cc1OC (stereo not drawn) | x | 102
14 | CN(Cc1ccccc1)C(=O)c1nc(-c2cccnc2)no1 | x | 99
15 | Cc1ccc(CN(C)C(=O)COc2ccccc2-c2ccccc2)o1 | -21 | x
16 | CCCc1cc(=O)[nH]c(Nc2ccccc2)n1 | 77* | 107
17 | CCc1cc(=O)[nH]c(Nc2ccccc2)n1 | -7 | 110
18 | CCN1/C(=C\C=C2\C(=O)N(C)C(=S)N2C)Sc2ccccc21 | x | 270
19 | CCN1/C(=C\C=C2/C(=O)NC(=O)N(C)C2=O)Sc2ccccc21 | -44 | -61*
20 | CC(=O)Nc1ccc(C)cc1-c1nnc(SC(C)C(=O)Nc2c(C)cc(C)cc2C)[nH]c1=O (stereo not drawn) | -12 | 100
21 | CC(C)(C)C(=O)Nc1ccc(-c2nc3ccc(NC(=O)C(C)(C)C)cc3[nH]2)cc1 | 9 | 100
22 | C=CC(=O)Nc1ccc(-c2nc3ccc(NC(=O)C=C)cc3[nH]2)cc1 | 54* | 111
23 | COc1cc(OC)c(NC(=O)CN2CCCn3nc(C)cc32)cc1Cl | -17 | 97
24 | CCN(CC)CCN(C)Cc1c(F)cccc1F | -4 | 103
25 | CC(=O)n1c(/C=C2\C=c3ccccc3=NC2=O)c(O)[nH]c1=S | 15 | 49*
26 | CC(=O)n1c(O)c(/C=C2\C=c3ccc(C)cc3=NC2=O)sc1=N | x | 111
27 | CC1CCCCC1NC(=O)c1ccc(/C=C2/Sc3ccccc3NC2=O)cc1 (stereo not drawn) | x | 101
28 | Cc1cccn2c(=O)cc(COc3cccc(NC(=O)Nc4ccc(Cl)cc4)c3)nc12 | x | 103
29 | Cc1ccc(S(=O)(=O)Nc2nc3n(n2)C(c2ccc(Cl)cc2)C=C(c2ccccc2)N3)cc1 (stereo not drawn) | -54 | -66*!
30 | O=C(Nc1nc2n(n1)C(c1ccc(F)cc1)C=C(c1ccccc1)N2)c1ccc(Cl)cc1 (stereo not drawn) | -27 | 141

# Entries above with a tert-butyl group (2):
item | mol | HCMV UL50-53 inh | GIV Gai3 FP
3 | COC(=O)COc1ccc(C)cc1C(C)(C)C | -3 | 101
21 | CC(C)(C)C(=O)Nc1ccc(-c2nc3ccc(NC(=O)C(C)(C)C)cc3[nH]2)cc1 | 9 | 100

# More entries:
item | mol | HCMV UL50-53 inh | GIV Gai3 FP
31 | COc1ccccc1C(=O)Nc1nc2n(n1)C(c1ccc(F)cc1)C=C(c1ccc(Cl)cc1)N2 (stereo not drawn) | -35 | 125
32 | Cc1ccc(C2C=C(c3ccc(Cl)cc3)Nc3nc(NC(=O)c4ccco4)nn32)cc1 (stereo not drawn) | -52 | 33*
33 | Cc1ccc(S(=O)(=O)Nc2nc3n(n2)C(c2ccc(Cl)cc2)C=C(c2ccc(Cl)cc2)N3)cc1 (stereo not drawn) | -20 | 113
34 | COc1ccc(C(=O)Nc2nc3n(n2)C(c2ccc(F)cc2)C=C(c2ccc(Cl)cc2)N3)cc1 (stereo not drawn) | -17 | -66*
35 | Cn1nc(-c2nnc(-c3ccccc3)o2)c2c1CCN(S(=O)(=O)c1ccc3c(c1)CCC3)C2 | x | 108
36 | COc1ccccc1CNC(=O)CCC(=O)Nc1nc(-c2cc3ccccc3oc2=O)cs1 | x | 107
37 | CCOC(=O)c1ccccc1NC(=O)c1ccc(-n2nc(C)cc2C)cc1 | -18 | x
38 | Cc1ccc(NC(=O)Nc2cccc(Cl)c2)cc1OCc1cc(=O)n2ccccc2n1 | x | 99
39 | COc1ccc(-c2nc(Nc3ccc(OC)c(Cl)c3)c3ccccc3n2)cc1 | 1 | 111
40 | COc1ccc(-c2nc(Nc3ccc4c(c3)OCCO4)c3ccccc3n2)cc1OC | 34* | 101

# An excerpt from above in order of the GIV Gai3 FP value, descending.
cpd | Structure | GIV Gai3 FP
33 | Cc1ccc(S(=O)(=O)Nc2nc3n(n2)C(c2ccc(Cl)cc2)C=C(c2ccc(Cl)cc2)N3)cc1 (stereo not drawn) | 113
39 | COc1ccc(-c2nc(Nc3ccc(OC)c(Cl)c3)c3ccccc3n2)cc1 | 111
40 | COc1ccc(-c2nc(Nc3ccc4c(c3)OCCO4)c3ccccc3n2)cc1OC | 101
32 | Cc1ccc(C2C=C(c3ccc(Cl)cc3)Nc3nc(NC(=O)c4ccco4)nn32)cc1 (stereo not drawn) | 33*

# (more compounds)
item | mol | HCMV UL50-53 inh | GIV Gai3 FP
41 | Cn1c(=O)c2c(SCC(=O)N3CCCc4ccccc43)nc(-c3cccs3)nc2n(C)c1=O | x | 101
42 | O=S(=O)(c1cc(-c2cc(C(F)(F)F)on2)cs1)N1CCC(Cc2ccccc2)CC1 | x | 100
43 | CCN(CC)c1ccc2cc(-c3nc(-c4ccccc4)cs3)c(=O)oc2c1 | x | -32*!
44 | CCN(CC)c1ccc2cc(-c3nc(-c4cccs4)no3)c(=O)oc2c1 | x | -21*
45 | CCN(CC)c1ccc2cc(-c3csnn3)c(=O)oc2c1 | -32 | 162
46 | CCN(CC)c1ccc2cc(-c3nc(-c4cc(OC)c(OC)c(OC)c4)no3)c(=O)oc2c1 | x | -21*
47 | COc1cc(-c2noc(-c3cc4cccc(C)c4oc3=O)n2)cc(OC)c1OC | x | 101
48 | CCN(CC)c1ccc2cc(-c3csc(C)n3)c(=O)oc2c1 | -42 | x
49 | CCN(CC)c1ccc2cc(-c3nnc(-c4cccc(Cl)c4)o3)c(=O)oc2c1 | -45 | 7.6*
50 | CCN(CC)c1ccc2cc(-c3nc(-c4ccccc4F)no3)c(=O)oc2c1 | x | 117
51 | O=C(CCCc1nnc2n3nc(-c4ccccc4)nc3c3ccccc3n12)NCc1ccco1 | -25 | 97
52 | O=S(=O)(/N=C1\C=C2N(CCO)CCOC2(O)c2ccccc21)c1ccc(F)cc1 (stereo not drawn) | 40* | 96
53 | O=S(=O)(/N=C1\C=C2N(CCO)CCOC2(O)c2ccccc21)c1ccccc1 (stereo not drawn) | x | 95
54 | Cc1cc2c3c([nH]c2cc1S(=O)(=O)N1CCc2ccccc2C1)CCCC3=O | -13 | 108
55 | COC(=O)CC1C(=O)NCCN1C(=O)c1ccc(-c2ccccc2)cc1 (stereo not drawn) | -3 | x
56 | CN1C(=O)C(=Cc2ccc(Oc3ccc([N+](=O)[O-])cc3[N+](=O)[O-])cc2)C(=O)N(C)C1=O | -63 | 93
57 | CC1=NN(c2ccccc2)C(=O)/C1=C\c1ccc(Oc2ccc([N+](=O)[O-])cc2[N+](=O)[O-])cc1 | 54* | 97
58 | COc1ccc(/C=C2\C(=O)N(c3ccccc3)N=C2C)cc1 | 43* | 109
59 | CC1=NN(c2ccccc2)C(=O)/C1=C\c1ccc(N(C)C)cc1 | -21 | 105
60 | COc1ccc(NC(=O)c2sc3nc(C)nc(N4CCC(C)CC4)c3c2C)c(OC)c1 | x | 110
61 | O=C(CNS(=O)(=O)c1cc(-c2noc(C3CCC3)n2)cs1)N1CCN(c2ccccc2)CC1 | x | 98
62 | Cc1csc2c(=O)sc(NC(=O)c3cccs3)nc12 | 58* | 103
63 | Cc1csc2c(=O)sc(NC(=O)c3ccco3)nc12 | 33 | 103
64 | CCn1c(=O)c(N2CCCC(C(=O)NCCc3c[nH]c4ccc(OC)cc34)C2)nc2ccccc21 (stereo not drawn) | -31 | 107
65 | C=CCn1c(=O)[nH]c2nc3cc(N=CN(C)C)c(C)cc3nc2c1=O | x | -16*
66 | C=CCn1c(=O)[nH]c2nc3cc(N=CN(C)C)ccc3nc2c1=O | -92 | 104
